# Laboratory results taken from ChEMBL document CHEMBL5726825, “Heteroaryl Syk inhibitors” (2018).
# Target: Tyrosine-protein kinase SYK (Homo sapiens, UniProt P43405)
row,IC50 [nM],Structure (SMILES)
1,60.9,C[C@@H](Oc1cc(-c2ccc(N3CCOCC3)c(C(F)(F)F)c2)cc2nn(C)cc12)[C@H]1CNC(=O)C1
2,732,C[C@@H](Oc1nc(-c2cn(C(F)F)cn2)cc2nn(C)cc12)[C@H]1CNC(=O)C1
